# Patent US11161839B2, “2-quinolone derived inhibitors of BCL6” (Cancer Research Technology Limited, priority 2017, dated 2021)
# Biological target: BCL6-NCOR2(SMRT) corepressor protein-protein interaction (Homo sapiens (Human), UniProt P41182)
# Experiment: NanoBRET cell assay in transfected HEK293T cells
# Assay type: cell-based
# Settings: 6 hr
smiles,measurement,setting,value
"Cn1c(=O)cc(NC(C)(C)c2ncccn2)c2cc(Nc3ccnc(Cl)c3C#N)ccc21 [Example 1a, 2-Chloro-4-[[1-methyl-4-[(1-methyl-1-pyridin-2-yl-ethyl)amino]-2-oxo-6-quinolyl]amino]pyridine-3-carbonitrile]",IC50,"NanoBRET cell pIC50, further generated data (Table 2b)",468 nM
same,IC50,"NanoBRET cell pIC50, initially generated data (Table 2a)",676 nM
